According to patent US8406870B2, “Treating cancer using electromagnetic fields in combination with other treatment regimens” (priority 2006, dated 2013):

Tests used:
[1] = tested on: human breast cancer (MDA-MB-231) cells; details: text summary of Table 2, no intensity given
[2] = tested on: ER-negative MDA-MB-231 cells

**Q.** For `COc1cccc2c1C(=O)c1c(O)c3c(c(O)c1C2=O)C[C@@](O)(C(=O)CO)C[C@@H]3O[C@H]1C[C@H](N)[C@H](O)[C@H](C)O1` [Doxorubicin], which “CI50, combined effect of Doxorubicin and TTFields (additive)” value [1] is on record?
**A.** Its value is 1.

**Q.** `O=P1(N(CCCl)CCCl)NCCCO1` (stereo not drawn) [Cyclophosphamide] was tested. Which “cell number at the end of 72 hours” value ([2]; 20 mM Cyclophosphamide + 1.75 V/cm TTFields) did it give?
**A.** Its value is “almost complete loss of cells”.

**Q.** And the “cell count lower as compared to number before treatment initiation” value ([2]; 20 mM Cyclophosphamide + 1.75 V/cm TTFields, after 24 hours)?
**A.** Its value is 40±3%.

**Q.** And the “cell proliferation after cessation of 24 hour treatment” value ([2]; 20 mM Cyclophosphamide alone for 24 hours, then normal conditions)?
**A.** Its value is “almost complete recovery of the cell proliferation”.

**Q.** What about the “reduction in cell number” value ([2]; 20 mM Cyclophosphamide alone, 24 hours) of the same compound?
**A.** The value was “approx. 27±2%”.

**Q.** What about the “cell number during 72 hour treatment” value ([2]; 20 mM Cyclophosphamide alone, 72 hours) of the same compound?
**A.** The value was “linear relatively slow increase in the cell number”.
